Values of other authors as cited in US20250325636A1, “USE OF ENDOTHELIN RECEPTOR TYPE B AGONISTS FOR THE TREATMENT OF AORTIC VALVE STENOSIS” (INSTITUT NATIONAL DE LA SANTÉ ET DE LA RECHERCHE MÉDICALE, priority 2022, published 2025).

Chains of the proteins cited; added tags and fusions are not shown. Residues count along the entry.
UniProt P25101, 21-427: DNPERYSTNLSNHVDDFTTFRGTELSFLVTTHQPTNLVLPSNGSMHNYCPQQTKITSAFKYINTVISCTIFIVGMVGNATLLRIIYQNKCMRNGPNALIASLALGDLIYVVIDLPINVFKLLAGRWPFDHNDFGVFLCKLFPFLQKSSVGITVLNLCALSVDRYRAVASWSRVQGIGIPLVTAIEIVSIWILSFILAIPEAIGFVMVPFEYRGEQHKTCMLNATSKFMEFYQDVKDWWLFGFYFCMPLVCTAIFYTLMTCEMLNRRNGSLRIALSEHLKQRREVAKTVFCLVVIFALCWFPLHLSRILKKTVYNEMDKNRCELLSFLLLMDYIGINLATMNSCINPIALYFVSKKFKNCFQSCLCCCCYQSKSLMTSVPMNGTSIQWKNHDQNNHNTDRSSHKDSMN

Target: ETA (Homo sapiens, UniProt P25101)
Settings: ET-1 and ET-2 equipotent; cited from earlier work

Which “lower potency at the ETA subtype compared with ET-1 and ET-2” value does the source give for Endothelin 3 [ET-3] here?
Its value is “at least 100 fold”.
